In this assay the test system is EcoHIV. As to the kind of experiment: Viral load in EcoHIV-infected mice. Conditions: DON 1 mg/kg, i.p., q.o.d.

In the case of `[N-]=[N+]=CC(=O)CC[C@H](N)C(=O)O` [DON, 6-diazo-5-oxo-L-norleucine], the peripheral viral load entry was “caused an increase in peripheral viral load”.

For the origin of these results see patent US11110104B2, “Glutamine antagonists for the treatment of cognitive deficits and psychiatric disorders” (THE JOHNS HOPKINS UNIVERSITY, priority 2015, dated 2021).
